Data: patent US10526309B2, “Pan-TAM inhibitors and Mer/Axl dual inhibitors” (The University of North Carolina at Chapel Hill, priority 2015, dated 2020)

Key:
Type in all cases: biochemical
Settings in all cases: Table 1
Axl = biological target: T1, Axl (Homo sapiens, UniProt P30530); experiment: Axl kinase inhibition IC50
T1 sequence (P30530 26-894): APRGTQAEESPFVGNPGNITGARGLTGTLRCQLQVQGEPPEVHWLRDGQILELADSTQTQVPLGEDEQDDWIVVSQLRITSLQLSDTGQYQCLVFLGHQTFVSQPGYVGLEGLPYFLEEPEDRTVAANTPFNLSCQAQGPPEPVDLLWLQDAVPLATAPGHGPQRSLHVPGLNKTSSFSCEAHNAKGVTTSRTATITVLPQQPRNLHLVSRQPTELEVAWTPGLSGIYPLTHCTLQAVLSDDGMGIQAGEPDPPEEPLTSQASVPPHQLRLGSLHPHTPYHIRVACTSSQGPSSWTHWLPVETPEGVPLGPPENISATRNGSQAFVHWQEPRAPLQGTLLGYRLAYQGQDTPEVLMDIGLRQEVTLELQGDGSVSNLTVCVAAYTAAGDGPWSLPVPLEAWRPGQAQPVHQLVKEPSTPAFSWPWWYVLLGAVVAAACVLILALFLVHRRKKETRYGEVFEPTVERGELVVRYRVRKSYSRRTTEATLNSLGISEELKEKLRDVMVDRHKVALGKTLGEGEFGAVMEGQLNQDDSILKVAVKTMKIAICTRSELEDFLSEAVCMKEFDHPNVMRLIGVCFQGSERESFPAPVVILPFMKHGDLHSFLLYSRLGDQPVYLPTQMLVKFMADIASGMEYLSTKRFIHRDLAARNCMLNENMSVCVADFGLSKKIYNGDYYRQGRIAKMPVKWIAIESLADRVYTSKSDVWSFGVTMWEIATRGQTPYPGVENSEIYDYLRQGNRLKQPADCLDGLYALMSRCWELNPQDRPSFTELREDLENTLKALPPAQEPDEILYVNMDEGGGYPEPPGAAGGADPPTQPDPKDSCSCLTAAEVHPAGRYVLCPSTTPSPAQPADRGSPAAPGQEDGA

Tyro3 = biological target: T2, Tyro3 (Homo sapiens, UniProt Q06418); experiment: Tyro3 kinase inhibition IC50
T2 sequence (Q06418 41-890): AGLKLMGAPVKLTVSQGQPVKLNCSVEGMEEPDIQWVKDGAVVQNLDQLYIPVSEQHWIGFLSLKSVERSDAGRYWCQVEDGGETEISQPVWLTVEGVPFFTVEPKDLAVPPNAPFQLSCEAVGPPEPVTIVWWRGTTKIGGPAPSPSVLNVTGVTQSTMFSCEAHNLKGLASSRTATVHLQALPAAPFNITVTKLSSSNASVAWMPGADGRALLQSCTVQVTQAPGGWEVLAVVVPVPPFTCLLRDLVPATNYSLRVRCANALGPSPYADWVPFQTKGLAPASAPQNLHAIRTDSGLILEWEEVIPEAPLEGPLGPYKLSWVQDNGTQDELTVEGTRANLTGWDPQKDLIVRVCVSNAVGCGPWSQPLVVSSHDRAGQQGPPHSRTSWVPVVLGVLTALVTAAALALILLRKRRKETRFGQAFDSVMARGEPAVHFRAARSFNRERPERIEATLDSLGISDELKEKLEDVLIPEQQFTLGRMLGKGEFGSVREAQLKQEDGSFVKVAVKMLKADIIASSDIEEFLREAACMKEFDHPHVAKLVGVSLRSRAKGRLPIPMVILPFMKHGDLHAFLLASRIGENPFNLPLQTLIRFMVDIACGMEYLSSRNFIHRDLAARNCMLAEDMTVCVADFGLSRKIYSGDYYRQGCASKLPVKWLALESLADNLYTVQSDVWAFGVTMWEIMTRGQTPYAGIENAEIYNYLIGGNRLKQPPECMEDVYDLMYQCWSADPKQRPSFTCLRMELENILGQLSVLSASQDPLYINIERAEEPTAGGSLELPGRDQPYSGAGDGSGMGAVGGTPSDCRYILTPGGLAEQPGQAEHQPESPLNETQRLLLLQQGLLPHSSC

Mer = biological target: T3, Mer (Homo sapiens, UniProt Q12866); experiment: Mer kinase inhibition IC50
T3 sequence (Q12866 21-999): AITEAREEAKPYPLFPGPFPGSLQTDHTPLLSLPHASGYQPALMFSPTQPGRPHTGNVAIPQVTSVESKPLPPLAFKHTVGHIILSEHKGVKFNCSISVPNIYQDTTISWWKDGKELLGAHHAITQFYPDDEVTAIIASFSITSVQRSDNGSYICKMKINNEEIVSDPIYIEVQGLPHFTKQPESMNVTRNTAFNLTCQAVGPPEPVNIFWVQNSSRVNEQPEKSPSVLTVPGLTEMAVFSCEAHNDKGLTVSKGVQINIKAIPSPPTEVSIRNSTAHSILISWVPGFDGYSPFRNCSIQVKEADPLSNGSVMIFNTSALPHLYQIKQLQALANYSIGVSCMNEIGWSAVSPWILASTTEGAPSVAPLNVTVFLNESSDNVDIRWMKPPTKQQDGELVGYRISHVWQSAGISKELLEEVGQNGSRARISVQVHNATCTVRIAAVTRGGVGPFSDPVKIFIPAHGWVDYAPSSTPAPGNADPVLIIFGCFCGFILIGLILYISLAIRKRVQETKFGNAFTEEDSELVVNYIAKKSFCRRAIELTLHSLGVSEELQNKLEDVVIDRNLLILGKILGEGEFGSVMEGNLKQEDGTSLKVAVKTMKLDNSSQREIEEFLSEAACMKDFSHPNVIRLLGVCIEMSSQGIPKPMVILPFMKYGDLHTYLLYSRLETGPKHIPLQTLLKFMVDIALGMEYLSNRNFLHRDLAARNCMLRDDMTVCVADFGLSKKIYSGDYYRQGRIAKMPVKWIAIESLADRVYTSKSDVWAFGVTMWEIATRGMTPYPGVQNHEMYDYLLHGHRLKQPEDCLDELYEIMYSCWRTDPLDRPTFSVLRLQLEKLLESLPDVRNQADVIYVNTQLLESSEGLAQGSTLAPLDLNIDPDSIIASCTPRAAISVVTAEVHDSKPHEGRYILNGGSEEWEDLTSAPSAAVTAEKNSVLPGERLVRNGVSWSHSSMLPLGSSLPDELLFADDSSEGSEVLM

Structure (SMILES) | IC50 (Axl) [nM] | IC50 (Tyro3) [nM] | IC50 (Mer) [nM]
C=Cc1ccc(Nc2ncc(-c3ccccn3)c(N[C@H]3CC[C@H](O)CC3)n2)cc1 [UNC3204A, trans-4-((5-(Pyridin-2-yl)-2-((4-vinylphenyl)amino)pyrimidin-4-yl)amino)cyclohexan-1-ol] | 100 to 1000 | 10 to 100 | 
O[C@H]1CC[C@H](Nc2nc(Nc3cccc4ccccc34)ncc2-c2ccccn2)CC1 [UNC3205A] |  | 10 to 100 | 
C#Cc1ccccc1Nc1ncc(-c2ccccn2)c(N[C@H]2CC[C@H](O)CC2)n1 [UNC3206A] |  | 1000 to 30000 | 
O[C@H]1CC[C@H](Nc2nc(Nc3ccc4ccccc4c3)ncc2-c2ccccn2)CC1 [UNC3207A] | 100 to 1000 | 10 to 100 | 
C#Cc1cccc(Nc2ncc(-c3ccccn3)c(N[C@H]3CC[C@H](O)CC3)n2)c1 [UNC3223A] | 100 to 1000 | < 10 | 
O[C@H]1CC[C@H](Nc2nc(Nc3ccccn3)ncc2-c2ccccn2)CC1 [UNC3224A] |  | 10 to 100 | 
COc1ccc(Nc2ncc(-c3ccc(CN4CCCC4)cn3)c(N[C@H]3CC[C@H](O)CC3)n2)cc1 [UNC4240A] | 100 to 1000 | < 10 | 
O[C@H]1CC[C@H](Nc2nc(Nc3ccc(F)cc3)ncc2-c2ccc(CN3CCCC3)cn2)CC1 [UNC4241A] | < 10 | < 10 | 
Cc1ccc(Nc2ncc(-c3ccc(CN4CCCC4)cn3)c(N[C@H]3CC[C@H](O)CC3)n2)cc1 [UNC4242A] | < 10 | < 10 | 
O[C@H]1CC[C@H](Nc2nc(Nc3ccc(C(F)(F)F)cc3)ncc2-c2ccc(CN3CCCC3)cn2)CC1 [UNC4243A] | 10 to 100 | < 10 | 
O[C@H]1CC[C@H](Nc2nc(Nc3ccccc3F)ncc2-c2ccc(CN3CCCC3)cn2)CC1 [UNC4244A] | 10 to 100 | < 10 | 
O[C@H]1CC[C@H](Nc2nc(Nc3cccc(F)c3)ncc2-c2ccc(CN3CCCC3)cn2)CC1 [UNC4247A] | < 10 | < 10 | 
N#Cc1ccc(Nc2ncc(-c3ccc(CN4CCCC4)cn3)c(N[C@H]3CC[C@H](O)CC3)n2)cc1 [UNC4372A] | < 10 | < 10 | < 10
O[C@H]1CC[C@H](Nc2nc(Nc3ccc(Cl)cc3)ncc2-c2ccc(CN3CCCC3)cn2)CC1 [UNC4373A] | < 10 | < 10 | 
O[C@H]1CC[C@H](Nc2nc(Nc3ccc(Br)cc3)ncc2-c2ccc(CN3CCCC3)cn2)CC1 [UNC4377A] | < 10 | < 10 | 
